Earlier results, collected in patent US12663426B2, “Method and composition for measurement of nitric oxide” (The University of Chicago, priority 2019, dated 2026).

Details: 25° C., 100 mM phosphate buffer (pH 7.4); cited from earlier work

In the case of `CCN(CC)/[N+]([O-])=N/O.CCNCC` [DEA NONOate, Diethylamine NONOate], the half-life is listed as 16 min.
